From ChEMBL document CHEMBL1143495, “Topological model for the prediction of MRP1 inhibitory activity of pyrrolopyrimidines and templates derived from pyrrolopyrimidine” (Bioorg Med Chem Lett, 2005)

The chains behind the UniProt entries cited, without tags or fusion partners. Where a name states a change or a piece, a line headed by the entry shows the natural chain unless it says otherwise.
UniProt P33527: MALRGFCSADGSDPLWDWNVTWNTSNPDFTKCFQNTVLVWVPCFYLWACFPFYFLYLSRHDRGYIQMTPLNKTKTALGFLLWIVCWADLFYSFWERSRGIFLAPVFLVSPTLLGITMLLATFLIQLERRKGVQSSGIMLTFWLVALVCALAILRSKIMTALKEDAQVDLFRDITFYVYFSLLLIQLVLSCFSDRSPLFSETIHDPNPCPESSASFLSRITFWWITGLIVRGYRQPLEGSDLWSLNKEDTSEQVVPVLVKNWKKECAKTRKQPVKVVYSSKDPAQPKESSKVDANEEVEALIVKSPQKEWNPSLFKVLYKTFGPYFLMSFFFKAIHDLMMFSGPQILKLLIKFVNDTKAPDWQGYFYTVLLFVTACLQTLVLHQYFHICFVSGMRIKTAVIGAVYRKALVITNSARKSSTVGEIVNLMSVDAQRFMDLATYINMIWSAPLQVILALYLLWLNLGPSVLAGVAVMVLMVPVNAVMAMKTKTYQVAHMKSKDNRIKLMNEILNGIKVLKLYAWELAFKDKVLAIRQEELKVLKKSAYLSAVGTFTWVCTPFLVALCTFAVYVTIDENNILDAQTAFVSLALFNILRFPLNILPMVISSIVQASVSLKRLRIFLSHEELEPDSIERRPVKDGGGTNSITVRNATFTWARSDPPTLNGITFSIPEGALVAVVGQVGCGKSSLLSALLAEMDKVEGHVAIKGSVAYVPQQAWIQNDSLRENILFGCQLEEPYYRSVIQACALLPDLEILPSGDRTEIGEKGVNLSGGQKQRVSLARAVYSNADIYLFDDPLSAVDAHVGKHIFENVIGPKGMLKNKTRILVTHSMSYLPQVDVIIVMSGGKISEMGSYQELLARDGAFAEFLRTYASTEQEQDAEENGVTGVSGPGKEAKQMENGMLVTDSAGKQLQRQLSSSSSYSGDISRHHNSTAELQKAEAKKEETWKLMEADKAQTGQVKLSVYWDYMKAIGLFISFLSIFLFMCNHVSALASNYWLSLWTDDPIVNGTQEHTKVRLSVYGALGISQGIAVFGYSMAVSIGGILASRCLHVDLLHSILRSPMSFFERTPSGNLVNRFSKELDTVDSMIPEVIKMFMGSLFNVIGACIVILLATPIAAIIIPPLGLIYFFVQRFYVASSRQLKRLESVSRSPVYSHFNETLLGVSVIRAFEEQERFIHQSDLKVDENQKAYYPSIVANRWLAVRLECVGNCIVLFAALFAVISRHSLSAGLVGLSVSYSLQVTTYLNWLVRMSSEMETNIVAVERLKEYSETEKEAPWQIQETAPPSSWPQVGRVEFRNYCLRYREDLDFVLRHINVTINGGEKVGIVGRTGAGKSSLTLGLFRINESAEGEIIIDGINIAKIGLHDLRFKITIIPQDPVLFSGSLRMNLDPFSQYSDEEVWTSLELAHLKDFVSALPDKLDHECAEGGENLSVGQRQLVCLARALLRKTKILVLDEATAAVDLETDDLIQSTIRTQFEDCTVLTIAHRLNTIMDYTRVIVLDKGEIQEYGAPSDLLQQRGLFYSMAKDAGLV

Molecular target: Multidrug resistance-associated protein 1 (Homo sapiens, UniProt P33527)
Experiment: Inhibitory concentration against multidrug resistance associated protein 1

Row | Compound | IC50 [nM]
1 | CCNC(=O)c1c2n(c3c(N4CCN(CCc5ccc(F)c(F)c5)CC4)ncnc13)CCCC2 | < 250
2 | O=C(Nc1cccnc1)c1c2n(c3c(N4CCN(CCc5ccc(F)c(F)c5)CC4)ncnc13)CCCC2 | < 250
